Experimental data reported in patent publication US9574016B2, “Complex of bi-specific antibody and digoxigenin conjugated to a therapeutic or diagnostic agent” (Hoffmann-La Roche Inc., priority 2009, dated 2017).

What was measured:
AHA1 mRNA in MCF-7 cells = assay: AHA1 mRNA knockdown by DIG-labeled siRNA-lipid nanoparticles (bDNA); type: cell-based, human; conditions: no siRNA, only antibody (3.24 nM), 12 h
Experimental: (iii) Complexation of DIG-labeled siRNA-lipid nanoparticles with <Target-DIG> bispecific antibodies. DIG-labeled siRNA-lipid nanoparticles containing 1 pmol of AHA1-, DIG-coupled AHA1-, or luciferase (LUC)-siRNAs were incubated with 3.24 pmol of bispecific antibodies directed against either the tumor-associated LewisY oligosaccharide and DIG <LeY-DIG> or against the sialic acid-binding transmembrane protein, CD22, and DIG <CD22-DIG> or with Dulbecco's Phosphate Buffered Saline (D-PBS) (Invitrogen, Carlsbad, Calif.) in a final volume of 200 μl Opti-MEM® vitrogen GmbH, Darmstadt, Germany) at RT for 30 min.
(iv) Evaluation of targeting- and mRNA silencing properties of DIG-labeled siRNA-lipid nanoparticles in combination with <Target-DIG> bispecific antibodies in vitro; MCF-7 cells were seeded on a 96-well plate with a density of 15,000 cells/well in 80 μl medium (RPMI 1640 Medium, 10% fetal calf serum, 100 U/ml penicillin/streptomycin; Biochrom AG, Berlin, Germany) and incubated overnight in a cell incubator (37° C., 95% H2O, 5% CO2). […] After incubation, cells were lysed and AHA1- and GAPDH-mRNA concentrations were quantified using a commercially available bDNA-quantification system (Affymetrix Inc., Fremont, Calif.). […]

[1] = system: Aha1 mRNA in LeY positive MCF7 cells; assay: bDNA assay of bispecific / DIG-siRNA / CPP-PolyArg complexes; type: cell-based, human; conditions: MCF7, 3 h plus 21 hours
Experimental: To analyze these complexes for their ability to specifically induce mRNA silencing in target cells, we compared targeted siRNA transfection of complexes that contained either a <LeY>-<DIG> and a <CD22>-<DIG> bispecific antibody, which were charged with a DIG labeled siRNA targeting either Aha1 or as a control luciferase. These complexes were formed by pre-incubation Dig-siRNA with <Dig> bispecific at room temperature for 30 minutes, followed by addition of the CPP-PolyArg (siRNA binding) entity to generate the full transfection competent complex. The entire complex was incubated for further 30 minutes at room temperature before adding to LeY positive MCF7 cells for a duration of three hours in Optimem medium. After subsequent incubation in growth medium for another 21 hours, the cells were lysed, and their mRNA content was analyzed using a bDNA assay.

B1: CD22-DIG: bispecific antibody binding CD22 and digoxigenin; SEQ. ID NO. 13 or 55 and 14 or 56 (antibody)
heavy: EVQLVESGGGLVKPGGSLKLSCAASGFAFSIYDMSWVRQTPEKRLEWVAYISSGGGTTYYPDTVKGRFTISRDNAKNTLYLQMSSLKSEDTAMYYCARHSGYGSSYGVLFAYWGQGTLVTVSAASTKGPSVFPLAPSSKSTSGGTAALGCLVKDYFPEPVTVSWNSGALTSGVHTFPAVLQSSGLYSLSSVVTVPSSSLGTQTYICNVNHKPSNTKVDKKV[human IgG1 Fc not shown]GGGGSGGGGSQVQLVESGGGLVKPGGSLRLSCAASGFTFSDYAMSWIRQAPGKCLEWVSSINIGATYIYYADSVKGRFTISRDNAKNSLYLQMNSLRAEDTAVYYCARPGSPYEYDKAYYSMAYWGQGTTVTVSSGGGGSGGGGSGGGGSGGGGSDIQMTQSPSSLSASVGDRVTITCRASQDIKNYLNWYQQKPGKAPKLLIYYSSTLLSGVPSRFSGSGSGTDFTLTISSLQPEDFATYYCQQSITLPPTFGCGTKVEIK
light: DIQMTQTTSSLSASLGDRVTISCRASQDISNYLNWYQQKPDGTVKLLIYYTSILHSGVPSRFSGSGSGTDYSLTISNLEQEDFATYFCQQGNTLPWTFGGGTKLEIKTVAAPSVFIFPPSDEQLKSGTASVVCLLNNFYPREAKVQWKVDNALQSGNSQESVTEQDSKDSTYSLSSTLTLSKADYEKHKVYACEVTHQGLSSPVTKSFNRGEC
modifications: humanized <CD22> <dig> H-chain, disulfide- stabilized; humanized <CD22> <dig> L-chain
Q: What does the source list for B1?
A: relative AHA1-mRNA concentration (AHA1 mRNA in MCF-7 cells): 96.3%; Aha1 mRNA silencing [1]: reduced RNAi compared to the effects that could be reached with the <LeY-Dig> bispecific antibody
